# Laboratory results from patent publication US20240166755A1, “CHIMERIC ANTIGEN RECEPTORS TARGETING CANCER” (University of Southern California, priority 2016, published 2024).
# B1: CD8SP-161-(vL-vH)-Myc-CD28z-T2A-PAC(021715-Z07): CAR targeting MPL: 161 scFv with CD28 hinge, transmembrane and cytosolic domains and CD3z (protein)
# chain: MALPVTALLLPLALLLHAARPDDIQMTQSSSSFSVSLGDRVTITCMASEDIYIRLAWYQQKPGNAPRLLISAATSLETGVPSRFSGSGSGKDYTLSITSLQTEDVGTYYCQQYWSSPWTFGGGTKLEINGGGGSGGGGSGGGGSDVQLQESGPGLVKPSQSLSLTCTVTGYSITSDYTWNWIRQFPGNKLEWMGYITYSGSTSYNPSLKSRNSITRDTSKNQFFLQLNSVTTEDTATYYCARLGRRYTMDYWGQGTSVTVSSTREQKLISEEDLKIEVMYPPPYLDNEKSNGTIIHVKGKHLCPSPLFPGPSKPFWVLVVVGGVLACYSLLVTVAFIIFWVRSKRSRLLHSDYMNMTPRRPGPTRKHYQPYAPPRDFAAYRSRVKFSRSADAPAYQQGQNQLYNELNLGRREEYDVLDKRRGRDPEMGGKPRRKNPQEGLYNELQKDKMAEAYSEIGMKGERRRGKGHDGLYQGLSTATKDTYDALHMQALPPRSSGSGEGRGSLLTCGDVEENPGPHMTEYKPTVRLATRDDVPRAVRTLAAAFADYPATRHTVDPDRHIERVTELQELFLTRVGLDIGKVWVADDGAAVAVWTTPESVEAGAVFAEIGPRMAELSGSRLAAQQQMEGLLAPHRPKEPAWFLATVGVSPDHQGKGLGSAVVLPGVEAAERAGVPAFLETSAPRNLPFYERLGFTVTADVEVPEGPRTWCMTRKPGA
# modifications: listed as DNA
# notes: CAR targeting MPL: 161 scFv with CD28 hinge, transmembrane and cytosolic domains and CD3z
# B2: CD8SP-CD19Bu12-(vL-vH)-Myc-BBz-T2A-PAC(082815-P08): CD19 CAR with scFv from humanized CD19 antibody huCD19-Bu12, 41BB and CD3z (protein)
# chain: MALPVTALLLPLALLLHAARPDEIVLTQSPATLSLSPGERATLSCSASSSVSYMHWYQQKPGQAPRLLIYDTSKLASGIPARFSGSGSGTDFTLTISSLEPEDVAVYYCFQGSVYPFTFGQGTKLEIKRGGGGSGGGGSGGGGSQVQLQESGPGLVKPSQTLSLTCTVSGGSISTSGMGVGWIRQHPGKGLEWIGHIWWDDDKRYNPALKSRVTISVDTSKNQFSLKLSSVTAADTAVYYCARMELWSYYFDYWGQGTLVTVSSTREQKLISEEDLAKPTTTPAPRPPTPAPTIASQPLSLRPEACRPAAGGAVHTRGLDFACDIYIWAPLAGTCGVLLLSLVITLYCKRGRKKLLYIFKQPFMRPVQTTQEEDGCSCRFPEEEEGGCELRVKFSRSADAPAYQQGQNQLYNELNLGRREEYDVLDKRRGRDPEMGGKPRRKNPQEGLYNELQKDKMAEAYSEIGMKGERRRGKGHDGLYQGLSTATKDTYDALHMQALPPRSSGSGEGRGSLLTCGDVEENPGPHMTEYKPTVRLATRDDVPRAVRTLAAAFADYPATRHTVDPDRHIERVTELQELFLTRVGLDIGKVWVADDGAAVAVWTTPESVEAGAVFAEIGPRMAELSGSRLAAQQQMEGLLAPHRPKEPAWFLATVGVSPDHQGKGLGSAVVLPGVEAAERAGVPAFLETSAPRNLPFYERLGFTVTADVEVPEGPRTWCMTRKPGA
# modifications: listed as DNA
# notes: CD19 CAR with scFv from humanized CD19 antibody huCD19-Bu12, 41BB and CD3z
# B3: CD8SP-KSHV-4C3-(vL-vH)-Myc-BBz-T2A-PAC(042315-N01): CAR with scFv against KSHV encoded K8.1 protein, used as a negative control (protein)
# chain: MALPVTALLLPLALLLHAARPDIVMTQSPSSLTMSVGQKVTMSCKSSHSLLNSRNQKNYLAWFQQKPGQSPKLLVYFASTRESGVPDRFIGSGSGTDFTLTISNVQAEDLADYFCQQHYTTLPTFGGGTKLEIKGGGGSGGGGSGGGGSQIQLVQSGPDLKKPGETVKISCKASGYTFTNTGMNWVKQAPGKGLKWMGWINTYTGEPTYADDFKGRFTFSLETSASTAYLQINNLKNEDTATYFCTRWGYGSSLYYAMDYWGQGTSVTVSSTREQKLISEEDLAKPTTTPAPRPPTPAPTIASQPLSLRPEACRPAAGGAVHTRGLDFACDIYIWAPLAGTCGVLLLSLVITLYCKRGRKKLLYIFKQPFMRPVQTTQEEDGCSCRFPEEEEGGCELRVKFSRSADAPAYQQGQNQLYNELNLGRREEYDVLDKRRGRDPEMGGKPRRKNPQEGLYNELQKDKMAEAYSEIGMKGERRRGKGHDGLYQGLSTATKDTYDALHMQALPPRSSGSGEGRGSLLTCGDVEENPGPHMTEYKPTVRLATRDDVPRAVRTLAAAFADYPATRHTVDPDRHIERVTELQELFLTRVGLDIGKVWVADDGAAVAVWTTPESVEAGAVFAEIGPRMAELSGSRLAAQQQMEGLLAPHRPKEPAWFLATVGVSPDHQGKGLGSAVVLPGVEAAERAGVPAFLETSAPRNLPFYERLGFTVTADVEVPEGPRTWCMTRKPGA
# modifications: listed as DNA
# notes: CAR with scFv against KSHV encoded K8.1 protein, used as a negative control
# Key:
# [1] = molecular target: T1, extracellular domain (ECD) of human MPL (Homo sapiens, UniProt P40238); experiment: NLuc assay to detect CAR: binding of MPL-ECD-GGSG-NLuc-AcV5 supernatant to CAR-expressing cells
# T1 construct: made in house; host or cells: 293FT cells, conditioned medium used unpurified
# Text: (§1) A frequent problem in the field of chimeric antigen receptors is lack of a sensitive and specific assay that can detect cells that express chimeric antigen receptors. To detect the expression of CAR targeting CD19 and MPL, we fused the extracellular domains (ECD) of human CD19 and human MPL, including their signal peptides, in frame with nucleotide sequence encoding a Gly-Gly-Ser-Gly linker, NLuc (without a secretory signal) and an AcV5 epitope tag. In the case of CD19 construct, a FLAG tag was inserted between the signal peptide and the beginning of the extracellular domain. The whole cassette was cloned downstream of the human EF1α promoter into the lentiviral vector pLenti-EF1 to make constructs pLenti-EF1-FLAG-CD19-ECD-GGSG-NLuc-AcV5 and pLenti-EF1-MPL-ECD-GGSG-NLuc-AcV5, respectively. The nucleic acid sequences of the insert fragments are provided in SEQ ID NO: 926 and SEQ ID NO: 925, respectively. The protein sequences of the insert fragments are provided in SEQ ID NO: 2671 and SEQ ID NO: 2670, respectively. The constructs were transfected into 293FT cells by calcium phosphate co-precipitation method. Approximately 20 h post-transfection, the cell culture media was replaced with fresh medium. The conditioned media containing the secreted FLAG-CD19-ECD-GGSG-NLuc-AcV5 (also referred to as CD19-GGSG-NLuc-AcV5) and MPL-ECD-GGSG-NLuc-AcV5 (also referred to as MPL-GGSG-NLuc-AcV5) proteins was collected 48-72 h later.
# (§2) Next day morning, approximately 18 hours post-transfection, cells were collected by pipetting up and down in 1.5 ml tubes. The tubes were spun down at 1500 RPM for 5 minutes. Then the cells were washed once with wash buffer (1% FBS in PBS), followed by incubation with 1001 of indicated secretory forms of GGS NLuc supernatants. The cells were incubated at 4° C. for 1 hour.
# (§3) After the incubation, cells were washed 5 times with wash buffer (1 ml each wash). Finally the pellet was resuspended in 200 μl wash buffer. Resuspended cells were placed in a 384 well plate in triplicate (25 μl each). Luciferase activity was measured using a BioTek synergy H4 plate reader after addition of NLuc assay buffer (Promega) containing native coelenterazine (25 μl each well) directly to each well (one at a time).
# T cells expressing the different MPL CAR constructs were incubated with MPL-GGSG-NLuc-AcV5 and CD19-GGSG-NLuc-AcV5 supernatants and after extensive washes assayed for NLuc activity essentially as described in the preceding example.
# [2] = test system: HEL cells; experiment: ELISA of TNFα in supernatant of CAR-T cells co-cultured with HEL cells; format: cell-based, human; conditions: co-culture about 96 hours, versus uninfected T cells
# [3] = test system: RAJI xenograft model of lymphoma; experiment: In vivo efficacy of CAR-T cells, RAJI xenograft model of lymphoma in NSG mice (Table 27); parameters: species or system mouse; conditions: for median survival: n=5
# Protocol: NSG mice (Jackson Lab) were sub-lethally irradiated at a dose of 175 cGy. 24 hours post irradiation (day2), mice were injected with 2.5×10^4 RAJI cells via tail-vein. […] Control mice (n=5) were injected with 1 million T cells expressing the CD8SP-KSHV-4C3-(vL-vH)-Myc-BBz-T2A-PAC(042315-N01)[SEQ ID NO:1643] CAR or given no T cells. […] The median survival of mice given RAJI cells alone and CD8SP-KSHV-4C3-(vL-vH)-Myc-BBz-T2A-PAC(042315-N01)[SEQ ID NO:1643]CAR-T cells were 17 days and 21 days respectively. In contrast, the median survival of mice which received CD8SP-2-CD19MM-(vL-vH)-Myc-BBz-T2A-PAC(062915-D03)[SEQ ID NO:1471] CAR-T cells with and without puromycin selection were 26 and 30 days, respectively. […] CAR-T cells with and without puromycin selection were 30 and 31 days, respectively.
# NSG mice (Jackson Lab) were sub-lethally irradiated at a dose of 175 cGy. 24 hours post irradiation (day2), mice were injected with 2.5×10^4 RAJI cells via tail-vein. On day3, the mice (n=3 for each group) were treated with 1 million T cells that had been infected with the CAR encoding lentiviruses.
# Human peripheral blood T cells will be isolated using CD3 magnetic beads and infected with lentiviruses expressing the CAR constructs (SEQ ID NO: 11 1614-1B05) targeting CD 19. […] NSG mice (Jackson Lab) will be sub-lethally irradiated at a dose of 175 cGy. 24 hours post irradiation (day2), mice will be injected with 2.5×10^4 RAJI cells via tail-vein. On day 3, the mice (n=5 for each group) will be treated with 5 million T cells that had been infected with the indicated CAR encoding lentiviruses and expanded in the absence or presence of PF-04691502. Control mice (n=5) will be injected with 5 million uninfected T cells. Mice are given human IL2 (400 IU i.p.) on alternate days till the death of all mice in control group.
# [4] = molecular target: extracellular domain (ECD) of human CD19 (Homo sapiens, UniProt P15391); experiment: NLuc assay to detect CAR: binding of FLAG-CD19-ECD-GGSG-NLuc-AcV5 supernatant to CAR-expressing cells; conditions: puromycin selected
# Text: as §1, §2, §3
# Jurkat-NFAT-Luc cells were stably transduced with the different CD19 targeted CAR constructs and selected in puromycin. Cells were incubated with FLAG-CD19-ECD-GGSG-NLuc-AcV5 [SEQ ID NO:2671] supernatant and after extensive washes assayed for NLuc activity essentially as described previously.
# Purified T cells were stably transduced with the different CD19-targeted CAR constructs and selected in puromycin. Cells were incubated with FLAG-CD19-ECD-GGSG-NLuc-AcV5 [SEQ ID NO:2671] supernatant and after extensive washes assayed for NLuc activity essentially as described previously.
# [5] = stably transduced Jurkat-NFAT-Luc cells
molecule,measurement,setting,value
B1,binding to MPL-GGSG-NLuc AcV5 (NLuc assay),[1]; T cells expressing the CAR,modest binding
same,binding to MPL-ECD-GGSG-NLuc-AcV5 (NLuc assay),[1]; transiently transfected 293FT cells,strong binding
same,secretion of TNFα,[2],increased secretion of TNFα
B2,median survival,"[3]; 1 million T cells, with puromycin selection",30 days
same,median survival,"[3]; 1 million T cells, without puromycin selection",31 days
same,survival of mice,[3]; versus no T cells or control CAR T cells,statistically significant improvement in survival
same,binding to FLAG-CD19-ECD-GGSG-NLuc-AcV5 (NLuc assay),[4]; [5],strong binding
same,binding to FLAG-CD19-ECD-GGSG-NLuc-AcV5 (NLuc assay),[4]; transduced T cells,strong binding
B3,median survival,[3]; 1 million T cells expressing control CAR,21 days
same,binding to FLAG-CD19-ECD-GGSG-NLuc-AcV5 (NLuc assay),[4]; [5],no significant binding
same,binding to FLAG-CD19-ECD-GGSG-NLuc-AcV5 (NLuc assay),[4]; transduced T cells,no significant binding
